Sequences of proteins named here, by UniProt entry; tags and fusion partners are left off. Residues count along the entry.
UniProt P36544, 23-502 limits assumed: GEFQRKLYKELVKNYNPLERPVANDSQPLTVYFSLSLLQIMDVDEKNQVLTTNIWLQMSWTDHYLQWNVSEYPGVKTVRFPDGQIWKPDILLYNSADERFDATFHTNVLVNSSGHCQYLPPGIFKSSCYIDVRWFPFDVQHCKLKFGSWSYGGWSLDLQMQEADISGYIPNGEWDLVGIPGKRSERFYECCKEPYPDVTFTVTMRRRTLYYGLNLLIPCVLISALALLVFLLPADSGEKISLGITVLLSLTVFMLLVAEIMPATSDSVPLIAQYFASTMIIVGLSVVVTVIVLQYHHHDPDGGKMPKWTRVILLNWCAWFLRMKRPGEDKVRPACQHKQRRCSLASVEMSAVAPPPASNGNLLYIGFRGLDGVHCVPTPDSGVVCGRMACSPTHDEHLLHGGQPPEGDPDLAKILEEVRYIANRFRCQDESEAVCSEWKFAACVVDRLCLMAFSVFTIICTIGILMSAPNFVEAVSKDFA

In PMC10305119, “Analogs of 6-Bromohypaphorine with Increased Agonist Potency for α7 Nicotinic Receptor as Anti-Inflammatory Analgesic Agents” (Marine Drugs, 2023):

Molecular target: human α7 nAChR (Homo sapiens, UniProt P36544)
Assay: Calcium fluorescence assay on α7 nAChR expressed in Neuro2a cells, in the presence of PNU120596
Type: cell-based
Conditions: PNU120596 10 μM present

Row | EC50 | SMILES
1 | 50 µM | CCOC(=O)[C@H](Cc1c[nH]c2cc([N+](=O)[O-])ccc12)[N+](C)(C)C
2 | 52 µM | CCOC(=O)[C@H](Cc1c[nH]c2cc(N)ccc12)[N+](C)(C)C
3 | 599 µM | COC(=O)[C@H](Cc1c[nH]c2cc(O)ccc12)[N+](C)(C)C
4 | 22 µM | COC(=O)[C@H](Cc1c[nH]c2cc(C#N)ccc12)[N+](C)(C)C
5 | no agonistic activity | CCOC(=O)[C@H](Cc1c[nH]c2cc([N+](=O)[O-])ccc12)N(C)C
6 | no agonistic activity | COC(=O)[C@H](Cc1c[nH]c2cc(Br)ccc12)N(C)C
7 | 128 µM | CNC(=O)[C@H](Cc1c[nH]c2cc([N+](=O)[O-])ccc12)[N+](C)(C)C
8 | 23 µM | C[N+](C)(C)[C@@H](Cc1c[nH]c2cc([N+](=O)[O-])ccc12)C(N)=O
9 | 4 µM | COC(=O)[C@H](Cc1c[nH]c2cc(Br)ccc12)[N+](C)(C)C

Row | SMILES | EC50
10 | COC(=O)[C@H](Cc1c[nH]c2cc(I)ccc12)[N+](C)(C)C | 4.72 µM
